{
  "sequences": {"note": "Amino acid sequences for entries named in this document (tags omitted). Chains listed by the source or under a name are the forms on record and can include a tag or linker.", "UniProt P19926, other isoform, or with tags, fused parts or gaps Y105D/Q163K/D396N": "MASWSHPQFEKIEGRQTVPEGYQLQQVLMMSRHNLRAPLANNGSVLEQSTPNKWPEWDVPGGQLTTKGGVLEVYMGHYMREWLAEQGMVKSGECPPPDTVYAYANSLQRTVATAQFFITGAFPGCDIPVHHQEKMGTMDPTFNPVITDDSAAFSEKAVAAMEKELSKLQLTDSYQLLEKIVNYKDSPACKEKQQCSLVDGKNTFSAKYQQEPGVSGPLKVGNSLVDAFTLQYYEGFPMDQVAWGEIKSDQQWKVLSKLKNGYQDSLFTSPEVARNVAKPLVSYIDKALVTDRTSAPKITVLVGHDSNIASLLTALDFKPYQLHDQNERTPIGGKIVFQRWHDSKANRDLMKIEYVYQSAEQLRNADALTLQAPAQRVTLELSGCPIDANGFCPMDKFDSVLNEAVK"},
  "source": "patent US10533201B2",
  "about": "“Enzymatic transphosphorylation of sugar substrates” (priority 2014, dated 2020)",
  "biological_target": "T1, αGlc 1-P phosphatase (Escherichia coli, UniProt P19926, D396N/Q163K/Y105D)",
  "T1 construct": "Strep-tag (N); made in house; host or cells: E. coli Origami B (DE3), cytoplasmic, pMS470_dsbC vector (DsbC co-expressed)",
  "format": "biochemical",
  "experimental": "Fru 6-P was measured using an assay with mannitol 1-phosphate dehydrogenase (52). […] (1)\nFru (100, 200, 400 or 600 mM) or Glc (200 mM) was used as the acceptor substrate. […] Sampling was done to allow for determination of initial rates, but the full reaction time course was also recorded. Relevant kcat_app values for substrate consumption, phosphate release, and phosphoryl transfer were obtained from the corresponding V values using equation 2. Internal consistency of the data was always checked by mass balance. pH dependence of phosphoryl transfer. […] A 50 mM Mes buffer was used, except at pH ≤6.0 where 50 mM Mes and 20 mM sodium acetate were used, and at pH 8.0 where 50 mM Mes and 50 mM Tes were used. Buffer pH values were adjusted at 37° C. and controlled before and after recording each enzyme-catalyzed reaction. Sampling and analyses were as described above.\nFor data analysis by non-linear least-squares regression, SigmaPlot 2004 version 9.0 was used. Equation 3 describes a pH dependence where activity (expressed as logarithmic kcat_app) is constant at low pH and decreases above pKB. […]\nSelected samples were analyzed on a Dionex BioLC system (Dionex Corporation, Sunnyvale, USA) equipped with a CarboPac PA10 column (4×250 mm) and an Amino Trap guard column (4×50 mm) thermostated at 30° C. […]",
  "data": [
    {"compound": "O=P(O)(O)O[C@H]1O[C@H](CO)[C@@H](O)[C@H](O)[C@H]1O", "note": "[αGlc 1-P, alpha-glucose-1-phosphate]", "values": [
      {"measurement": "calculated maximum kcat_app (α-Glc 1-P) at saturating concentrations of the phosphoryl acceptor", "value": 254, "unit": "s⁻¹"}
    ]}
  ]
}
